The chains behind the UniProt entries cited, without tags or fusion partners. Residues count along the entry.
UniProt Q00987, 1-188 limits assumed: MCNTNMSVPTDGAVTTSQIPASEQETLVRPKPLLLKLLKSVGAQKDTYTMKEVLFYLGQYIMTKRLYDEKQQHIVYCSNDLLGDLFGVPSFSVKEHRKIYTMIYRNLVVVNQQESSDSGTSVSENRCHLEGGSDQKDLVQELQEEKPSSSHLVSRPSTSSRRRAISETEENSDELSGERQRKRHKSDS

In the test the target is interaction between HDM2 and p53 (GST-hMDM2 (1-188) / biotinylated-p53 (1-83)) (Homo sapiens (Human), UniProt Q00987). The test is described as follows: HTRF2 Assay (improved HTRF assay). The test is classed as binding. The conditions noted are these: read-out: HTRF2 IC50; 0.2 nM GST-hMDM2 (1-188), 0.5 nM biotinylated-p53 (1-83), 100 mM KF.
For the molecule `CC(C)(O)CN1C(=O)CO[C@@H](c2cccc(Cl)c2)[C@H]1c1ccc(Cl)cc1` (relative stereo), the IC50 turned out to be 14.5 µM. The figure for `CC(C)CN1C(=O)CO[C@@H](c2cccc(Cl)c2)[C@H]1c1ccc(Cl)cc1` (relative stereo) is 8.75 µM; for `CCC[C@H](C(=O)N1CCC(C(=O)O)CC1)N1C(=O)[C@H](Cc2ccc(I)cc2)O[C@@H](c2ccc(Cl)cc2)[C@H]1c1ccc(Cl)cc1` (relative stereo) it is 0.892 µM. As for `CCC[C@H](C(=O)NCC1(C(=O)O)CCCC1)N1C(=O)[C@H](Cc2ccc(C#N)cc2)O[C@@H](c2ccc(Cl)cc2)[C@H]1c1ccc(Cl)cc1` (relative stereo), the IC50 stood at 0.646 µM. In the case of `CCC[C@H](C(=O)O)N1C(=O)CO[C@@](C)(c2ccc(Cl)cc2)[C@H]1c1ccc(Cl)cc1` (relative stereo) it was 5.04 µM; in that of `CCC[C@H](C(=O)O)N1C(=O)CO[C@H](c2cccc(Cl)c2)[C@@H]1c1ccc(Cl)cc1` (relative stereo), 16.8 µM. On to `CCC[C@H](C(=O)O)N1C(=O)CO[C@](C)(c2ccc(Cl)cc2)[C@@H]1c1ccc(Cl)cc1` (relative stereo), for which the 50% inhibitory concentration (IC50) was 16.1 µM.

Consider `CCC[C@H](C(=O)O)N1C(=O)[C@H](Cc2ccc(-c3ccccc3)cc2)O[C@@H](c2ccc(Cl)cc2)[C@H]1c1ccc(Cl)cc1` (relative stereo), for which the concentration for half-maximal inhibition (IC50) is 1.44 µM. In the case of `CCC[C@H](C(=O)O)N1C(=O)[C@H](Cc2ccc(C(N)=O)cc2)O[C@@H](c2ccc(Cl)cc2)[C@H]1c1ccc(Cl)cc1` (relative stereo) it was 0.816 µM; in that of `CCC[C@H](C(=O)O)N1C(=O)[C@H](Cc2ccc(Cl)cc2)O[C@@H](c2ccc(Cl)cc2)[C@H]1c1ccc(Cl)cc1` (relative stereo), 1.26 µM. The figure for `CCC[C@H](C(=O)O)N1C(=O)[C@H](Cc2ccc(I)cc2)O[C@@H](c2ccc(Cl)cc2)[C@H]1c1ccc(Cl)cc1` (relative stereo) is 0.789 µM; for `CCC[C@H](C(=O)OCC)N1C(=O)[C@H](Cc2ccc(C#N)cc2F)O[C@@H](c2ccc(Cl)cc2)[C@H]1c1ccc(Cl)cc1` (relative stereo) it is 17.4 µM. For the molecule `CCC[C@H](CNC(=O)CC(=O)O)N1C(=O)[C@H](Cc2ccc(I)cc2)O[C@@H](c2ccc(Cl)cc2)[C@H]1c1ccc(Cl)cc1` (relative stereo), the IC50 is 18.4 µM.

As for `CN(C)Cc1ccc(C[C@H]2O[C@H](c3ccc(Cl)cc3)[C@H](c3ccc(Cl)cc3)N(C)C2=O)cc1` (relative stereo), the IC50 turned out to be 17.5 µM. With `CN1C(=O)[C@@H](Cc2ccc(C(=O)O)cc2)O[C@H](c2ccc(Cl)cc2)[C@@H]1c1ccc(Cl)cc1` (relative stereo), the IC50 is 7.99 µM. The figure for `CN1C(=O)[C@@H](Cc2ccc(CN)cc2)O[C@H](c2ccc(Cl)cc2)[C@@H]1c1ccc(Cl)cc1` (relative stereo) is 12.7 µM; for `COCCN1C(=O)CO[C@@H](c2cccc(Cl)c2)[C@H]1c1ccc(Cl)cc1` (relative stereo) it is 27.1 µM; for `Cn1cnc(N2C(=O)[C@@H](Cc3ccc(F)cc3)O[C@H](c3ccc(Cl)cc3)[C@@H]2c2ccc(Cl)cc2)c1` (relative stereo) it is 7.9 µM. As to `N#CC1(CN2C(=O)[C@@H](CC(=O)O)O[C@H](c3cccc(Cl)c3)[C@@H]2c2ccc(Cl)cc2)CC1` (relative stereo), the IC50 came out at 16.1 µM. `O=C(O)[C@@H](C1CC1)N1C(=O)CO[C@@H](c2cccc(Cl)c2)[C@H]1c1ccc(Cl)cc1` (relative stereo): the IC50 stood at 28.9 µM. In the case of `O=C(O)[C@@H](C1CC1)N1C(=O)CO[C@H](c2cccc(Cl)c2)[C@@H]1c1ccc(Cl)cc1` (relative stereo) it was 16.9 µM; in that of `O=C(O)[C@@H](c1ccccc1)N1C(=O)CO[C@@H](c2ccc(Cl)cc2)[C@H]1c1ccc(Cl)cc1` (relative stereo), 26.6 µM; in that of `O=C1CO[C@@H](c2cccc(Cl)c2)[C@@H](c2ccc(Cl)cc2)N1Cc1cscn1` (relative stereo), 13.7 µM.

The term IC50 denotes the point on the concentration scale where inhibition reaches its midpoint.
